Data on one compound can be found in ChEMBL document CHEMBL4145625 (J Med Chem, 2018).

The subject of this test is NCI-H460. The experiment in a line: cells. Format: functional, cell-based. The conditions noted are these: Homo sapiens, NCI-H460, 96 h.
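Also: cytotoxicity determined with an MTT assay.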

Consider `COc1ncc(-c2cc(OC3CCOCC3)c3nc(N)nc(C)c3c2)cc1NS(=O)(=O)c1ccc(F)cc1F`, for which inhibition was half-maximal at 29 nM (IC50).

What is called IC50 is the midpoint of a concentration-inhibition curve. Lower therefore signals higher potency.
